biological target: Voltage-gated inwardly rectifying potassium channel KCNH2 (Homo sapiens, UniProt Q12809); assay: Inhibition of human ERG by MK-0499 binding assay

Amino acid sequences for entries named in this document (tags omitted). A change or cut given only in a name is not applied to a line headed by its entry.
UniProt Q12809: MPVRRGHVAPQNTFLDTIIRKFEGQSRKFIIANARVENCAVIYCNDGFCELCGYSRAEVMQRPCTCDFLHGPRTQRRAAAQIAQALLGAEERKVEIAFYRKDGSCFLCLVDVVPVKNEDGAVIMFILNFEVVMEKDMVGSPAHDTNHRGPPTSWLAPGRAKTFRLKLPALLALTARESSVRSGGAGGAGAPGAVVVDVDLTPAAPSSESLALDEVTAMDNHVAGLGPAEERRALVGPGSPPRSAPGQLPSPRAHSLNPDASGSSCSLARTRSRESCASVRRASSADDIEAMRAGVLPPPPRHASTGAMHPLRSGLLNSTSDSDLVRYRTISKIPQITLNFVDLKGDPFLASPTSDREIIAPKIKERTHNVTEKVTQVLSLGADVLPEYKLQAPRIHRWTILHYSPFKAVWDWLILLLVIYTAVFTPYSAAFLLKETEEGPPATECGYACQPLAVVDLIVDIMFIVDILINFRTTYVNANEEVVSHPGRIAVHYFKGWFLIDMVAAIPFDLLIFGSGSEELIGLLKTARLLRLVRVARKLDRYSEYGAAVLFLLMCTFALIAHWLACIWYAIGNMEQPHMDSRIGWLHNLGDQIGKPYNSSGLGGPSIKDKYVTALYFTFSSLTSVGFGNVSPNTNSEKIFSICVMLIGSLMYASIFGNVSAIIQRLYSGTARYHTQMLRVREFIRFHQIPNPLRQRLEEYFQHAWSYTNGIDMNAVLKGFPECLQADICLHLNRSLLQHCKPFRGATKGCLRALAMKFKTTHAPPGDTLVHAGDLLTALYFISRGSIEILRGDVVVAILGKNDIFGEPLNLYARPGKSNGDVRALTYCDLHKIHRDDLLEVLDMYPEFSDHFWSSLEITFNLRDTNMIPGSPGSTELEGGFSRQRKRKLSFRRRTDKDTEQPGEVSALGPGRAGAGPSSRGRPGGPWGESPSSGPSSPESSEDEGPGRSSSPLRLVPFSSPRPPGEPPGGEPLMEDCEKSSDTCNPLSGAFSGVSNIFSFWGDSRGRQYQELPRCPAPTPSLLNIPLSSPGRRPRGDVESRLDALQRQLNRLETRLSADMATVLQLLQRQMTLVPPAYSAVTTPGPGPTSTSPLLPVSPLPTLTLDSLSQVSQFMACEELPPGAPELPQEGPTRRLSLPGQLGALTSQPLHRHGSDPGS

Compared with `O=C1CSC(c2cc(C(F)(F)F)cc(S(=O)(=O)N3CCN(C(=O)[C@@H]4C[C@H]4c4ccc(C(F)(F)F)cc4)CC3)c2)=N1`, `Cc1[nH]ncc1-c1cc(C(F)(F)F)cc(S(=O)(=O)N2CCN(C(=O)[C@@H]3C[C@H]3c3ccc(C(F)(F)F)cc3)CC2)c1` is 100-fold lower in IC50: 4000 nM for the first, 40 nM for the second.

Compared with `O=C([C@@H]1C[C@H]1c1ccc(C(F)(F)F)cc1)N1CCN(S(=O)(=O)c2cc(C(F)(F)F)cc(C(F)(F)CO)c2)CC1`, `O=C([C@@H]1C[C@H]1c1ccc(C(F)(F)F)cc1)N1CCN(S(=O)(=O)c2cc(-c3cn[nH]c3)cc(C(F)(F)F)c2)CC1` is 5-fold lower in IC50: 2500 nM for the first, 500 nM for the second. The second is the more potent here.

Work on `Cc1nnc(-c2cc(C(F)(F)F)cc(S(=O)(=O)N3CCN(C(=O)[C@@H]4C[C@H]4c4ccc(C(F)(F)F)cc4)CC3)c2)[nH]1` yielded an IC50 of 1300 nM.
